Assays:
[1] = tested on: skin vessel permeability; assay: Miles vascular permeability assay (Example 3); type: in vivo, SCID mice; details: VPF/VEGF intradermal
Experimental: SCID mice were injected subcutaneously (s.c.) with TNP-470 or HPMA copolymer-TNP-470 (30 mg/Kg TNP-equiv.) for three days, with Y27632 (50 nM s.c.) for 11 days, with angiostatin (200 mg/kg/day s.c.) for five days, or with saline (250 μl s.c.) for 5 days (n=12) prior to performing the Miles assay ([…] et al., 1996; Miles and Miles, 1952; Streit et al., 2000). Briefly, Evan's blue dye (100 μl of a 1% solution in 0.9% NaCl) was injected intravenously (i.v.) into mice. After 10 minutes, 50 μl of human VEGF165 (1 ng/μl), PAF (100 μM), CNF-1 (100 ng), histamine (1.2 μg/ml) or PBS (50 ul) were injected intradermally into the pre-shaved back skin. After 20 minutes, the animals were euthanized and an area of skin that included the blue spot resulting from leakage of the dye was removed. Evan's blue dye was extracted from the skin by incubation with formamide for 5 days at room temperature, and the absorbance of extracted dye was measured at 620 nm using a spectrophotometer. The unpaired Student t test was used for statistical analysis.

[2] = tested on: VEGF induced vessel permeability; assay: Miles assay (Example 2), VEGF165 challenge; type: in vivo, mice
Experimental: One of the problems with angiogenesis-dependent diseases is increased vessel permeability (due to high levels of VPF) which results in edema and loss of proteins. A decrease in vessel permeability is beneficial in those diseases. We have found, using the Miles assay ([…], et al., Cancer Res, 56:172-181 (1996)), that free and bound TNP-470 block permeability. Briefly, a dye, Evans Blue (1% in PBS), was injected i.v. to anesthesized mice. After 10 min, human recombinant VEGF165 (50 ng/50 μl) was injected intradermally into the back skin. Leakage of protein-bound dye was detected as blue spots on the underside of the back skin surrounding the injection site. After 20 min mice were euthanized. Then, the skin was excised, left in formamide for 5 days to be extracted and the solution read at 620 nm. Putative angiogenesis inhibitors such as free and conjugated TNP-470 were injected daily 3 days (30 mg/kg/day) prior to the VEGF challenge. The same was repeated on tumor-bearing mice to evaluate the effect of angiogenesis inhibitors on tumor vessel permeability.

Herceptin: Anti-Erb B-2 antibody (Herceptin) from Genentech; indirect angiogenesis inhibitor
effect on VPF/VEGF-induced vessel permeability [1]: no significant effect
effect on VEGF induced vessel permeability [2]: no effect
